Experiments:
Bcl-xL = Bcl-xL (Homo sapiens, UniProt Q07817); assay: Bcl-xL binding affinity analysis (fluorescence polarization binding assay); settings: read-out: BcI-XI (Ki, Bcl-xL binding affinity)
From the text: (§1) Bcl-2 and Bcl-xL binding may be determined using a variety of known methods. One such assay is a sensitive and quantitative in vitro binding assay using fluorescence polarization (FP) described by Wang, J.-L.; Zhang, Z-J.; Choksi, S.; Sjam. S.; Lu, Z.; Croce, C. M.; Alnemri, E. S.; Komgold, R.; Huang, Z. Cell permeable Bcl-2 binding peptides: a chemical approach to apoptosis induction in tumor cells. Cancer Res. 2000, 60, 1498-1502).
(§2) Bcl-2 and Bcl-xL binding affinity analysis data is presented below for various compounds of the invention.

Sequences of proteins named here, by UniProt entry; tags and fusion partners are left off.
UniProt Q07817, whole entry: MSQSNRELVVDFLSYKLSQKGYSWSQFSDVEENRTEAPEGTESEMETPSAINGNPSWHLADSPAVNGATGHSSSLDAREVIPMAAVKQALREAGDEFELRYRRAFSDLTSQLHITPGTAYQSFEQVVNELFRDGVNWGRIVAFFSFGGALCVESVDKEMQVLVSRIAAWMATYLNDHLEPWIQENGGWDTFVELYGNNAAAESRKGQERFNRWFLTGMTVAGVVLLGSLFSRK
UniProt P10415, whole entry: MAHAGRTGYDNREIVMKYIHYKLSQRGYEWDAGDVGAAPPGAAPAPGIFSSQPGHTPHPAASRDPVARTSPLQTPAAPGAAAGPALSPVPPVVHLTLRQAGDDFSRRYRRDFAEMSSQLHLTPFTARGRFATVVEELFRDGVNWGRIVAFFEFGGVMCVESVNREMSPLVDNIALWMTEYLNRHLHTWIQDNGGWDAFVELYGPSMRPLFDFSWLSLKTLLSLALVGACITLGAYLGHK

Bcl-2 = Bcl-2 (Homo sapiens, UniProt P10415); assay: Bcl-2 binding affinity analysis (fluorescence polarization binding assay); settings: read-out: BcI2 (Ki, Bcl-2 binding affinity)
From the text: as §1, §2

Ki (Bcl-xL)	Ki (Bcl-2)	Compound
< 1000 nM	< 1 nM	COc1c(CN2O[C@@H](CO)[C@@H]([C@H](C)O)[C@H]2C(=O)N[C@H]2C[C@H]3C[C@@H]([C@@H]2C)C3(C)C)cccc1-c1cc(C(=O)N[C@H](CN=C(N(C)C)N(C)C)CC(C)C)cc(N(C)C)c1
< 1000 nM	< 1 nM	COc1c(CN2O[C@@H](CO)[C@@H]([C@H](C)O)[C@H]2C(=O)N[C@H]2C[C@H]3C[C@@H]([C@@H]2C)C3(C)C)cccc1-c1cc(C(=O)N[C@@H](CN(C)C)CC(C)(C)C)cc(N(C)C)c1
< 1000 nM	< 1 nM	C[C@@H]1[C@@H](NC(=O)[C@@H]2[C@H]([C@H](C)O)[C@H](CO)ON2Cc2cccc(-c3cc(C(=O)O)cc(N(C)C)c3)c2OCCN(C)C)C[C@H]2C[C@@H]1C2(C)C
< 1000 nM	< 1 nM	COc1c(CN2O[C@@H](CO)[C@@H]([C@H](C)O)[C@H]2C(=O)N[C@H]2C[C@H]3C[C@@H]([C@@H]2C)C3(C)C)cccc1-c1cc(C(=O)N[C@@H](CC(C)C)CN2CCOCC2)cc(N(C)C)c1
